# Measured values published in PubChem BioAssay (NCI).
#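 Results reflect a 48-hour exposure of cells in 96-well plates to compound at five concentrations. GI50 = concentration required for 50% inhibition of growth. TGI denotes the concentration required for complete inhibition of growth.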
# Experiments:
# Assay in all cases: DTP human tumour cell line panel, 48 h
# CAKI-1 renal = tested on: CAKI-1 renal
# 786-0 renal = tested on: 786-0 renal
# KM12 colon = tested on: KM12 colon
# OVCAR-8 ovarian = tested on: OVCAR-8 ovarian
# NCI-H226 lung = tested on: NCI-H226 lung
# RPMI-8226 leukemia = tested on: RPMI-8226 leukemia
# HCT-116 colon = tested on: HCT-116 colon
# HOP-62 NSCLC = tested on: HOP-62 NSCLC
# NCI-H522 lung = tested on: NCI-H522 lung
# SNB-19 CNS = tested on: SNB-19 CNS
# UACC-62 melanoma = tested on: UACC-62 melanoma
# BT-549 breast = tested on: BT-549 breast
# M14 melanoma = tested on: M14 melanoma
# OVCAR-3 ovarian = tested on: OVCAR-3 ovarian
# SK-MEL-5 melanoma = tested on: SK-MEL-5 melanoma
# UACC-257 melanoma = tested on: UACC-257 melanoma
# MDA-MB-231 breast = tested on: MDA-MB-231 breast
# NCI/ADR-RES ovarian = tested on: NCI/ADR-RES ovarian
# MDA-MB-435 = tested on: MDA-MB-435
# UO-31 renal = tested on: UO-31 renal
# SNB-75 CNS = tested on: SNB-75 CNS
# LOX IMVI melanoma = tested on: LOX IMVI melanoma
# HS 578T breast = tested on: HS 578T breast
# DU-145 prostate = tested on: DU-145 prostate
# PC-3 prostate = tested on: PC-3 prostate
# SW-620 colon = tested on: SW-620 colon
# HCT-15 colon = tested on: HCT-15 colon
# SK-OV-3 ovarian = tested on: SK-OV-3 ovarian
# MOLT-4 leukemia = tested on: MOLT-4 leukemia
# NCI-H460 lung = tested on: NCI-H460 lung
# MDA-N = tested on: MDA-N
# K-562 leukemia = tested on: K-562 leukemia
# SF-295 CNS = tested on: SF-295 CNS
# OVCAR-5 ovarian = tested on: OVCAR-5 ovarian
# HCC-2998 colon = tested on: HCC-2998 colon
# IGROV1 ovarian = tested on: IGROV1 ovarian
# HOP-92 NSCLC = tested on: HOP-92 NSCLC
# U251 CNS = tested on: U251 CNS
# HL-60(TB) leukemia = tested on: HL-60(TB) leukemia
# SK-MEL-28 melanoma = tested on: SK-MEL-28 melanoma
# EKVX NSCLC = tested on: EKVX NSCLC
# TK-10 renal = tested on: TK-10 renal
# A498 renal = tested on: A498 renal
# NCI-H322M lung = tested on: NCI-H322M lung
# NCI-H23 lung = tested on: NCI-H23 lung
# A549 NSCLC = tested on: A549 NSCLC
# SF-268 CNS = tested on: SF-268 CNS
# COLO 205 colon = tested on: COLO 205 colon
# ACHN renal = tested on: ACHN renal
# HT29 colon = tested on: HT29 colon
# RXF 393 renal = tested on: RXF 393 renal
# SK-MEL-2 melanoma = tested on: SK-MEL-2 melanoma
# SN12C renal = tested on: SN12C renal
# MALME-3M melanoma = tested on: MALME-3M melanoma
# MCF7 breast = tested on: MCF7 breast
# T-47D breast = tested on: T-47D breast
# OVCAR-4 ovarian = tested on: OVCAR-4 ovarian
compound,measurement,setting,value
CP1(=O)OCCCO1,GI50,CAKI-1 renal,> 100 µM
same,TGI,CAKI-1 renal,> 100 µM
same,GI50,786-0 renal,> 100 µM
same,TGI,786-0 renal,> 100 µM
same,GI50,KM12 colon,> 100 µM
same,TGI,KM12 colon,> 100 µM
same,GI50,OVCAR-8 ovarian,> 100 µM
same,TGI,OVCAR-8 ovarian,> 100 µM
same,GI50,NCI-H226 lung,> 100 µM
same,TGI,NCI-H226 lung,> 100 µM
same,GI50,RPMI-8226 leukemia,> 100 µM
same,TGI,RPMI-8226 leukemia,> 100 µM
same,GI50,HCT-116 colon,> 100 µM
same,TGI,HCT-116 colon,> 100 µM
same,GI50,HOP-62 NSCLC,> 100 µM
same,TGI,HOP-62 NSCLC,> 100 µM
same,GI50,NCI-H522 lung,> 100 µM
same,TGI,NCI-H522 lung,> 100 µM
same,GI50,SNB-19 CNS,> 100 µM
same,TGI,SNB-19 CNS,> 100 µM
same,GI50,UACC-62 melanoma,> 100 µM
same,TGI,UACC-62 melanoma,> 100 µM
same,GI50,BT-549 breast,> 100 µM
same,TGI,BT-549 breast,> 100 µM
same,GI50,M14 melanoma,> 100 µM
same,TGI,M14 melanoma,> 100 µM
same,GI50,OVCAR-3 ovarian,> 100 µM
same,TGI,OVCAR-3 ovarian,> 100 µM
same,GI50,SK-MEL-5 melanoma,> 100 µM
same,TGI,SK-MEL-5 melanoma,> 100 µM
same,GI50,UACC-257 melanoma,> 100 µM
same,TGI,UACC-257 melanoma,> 100 µM
same,GI50,MDA-MB-231 breast,> 100 µM
same,TGI,MDA-MB-231 breast,> 100 µM
same,GI50,NCI/ADR-RES ovarian,> 100 µM
same,TGI,NCI/ADR-RES ovarian,> 100 µM
same,GI50,MDA-MB-435,> 100 µM
same,TGI,MDA-MB-435,> 100 µM
same,GI50,UO-31 renal,> 100 µM
same,TGI,UO-31 renal,> 100 µM
same,GI50,SNB-75 CNS,> 100 µM
same,TGI,SNB-75 CNS,> 100 µM
same,GI50,LOX IMVI melanoma,> 100 µM
same,TGI,LOX IMVI melanoma,> 100 µM
same,GI50,HS 578T breast,> 100 µM
same,TGI,HS 578T breast,> 100 µM
same,GI50,DU-145 prostate,> 100 µM
same,TGI,DU-145 prostate,> 100 µM
same,GI50,PC-3 prostate,> 100 µM
same,TGI,PC-3 prostate,> 100 µM
same,GI50,SW-620 colon,> 100 µM
same,TGI,SW-620 colon,> 100 µM
same,GI50,HCT-15 colon,> 100 µM
same,TGI,HCT-15 colon,> 100 µM
same,GI50,SK-OV-3 ovarian,> 100 µM
same,TGI,SK-OV-3 ovarian,> 100 µM
same,GI50,MOLT-4 leukemia,> 100 µM
same,TGI,MOLT-4 leukemia,> 100 µM
same,GI50,NCI-H460 lung,> 100 µM
same,TGI,NCI-H460 lung,> 100 µM
same,GI50,MDA-N,> 100 µM
same,TGI,MDA-N,> 100 µM
same,GI50,K-562 leukemia,> 100 µM
same,TGI,K-562 leukemia,> 100 µM
same,GI50,SF-295 CNS,> 100 µM
same,TGI,SF-295 CNS,> 100 µM
same,GI50,OVCAR-5 ovarian,> 100 µM
same,TGI,OVCAR-5 ovarian,> 100 µM
same,GI50,HCC-2998 colon,> 100 µM
same,TGI,HCC-2998 colon,> 100 µM
same,GI50,IGROV1 ovarian,> 100 µM
same,TGI,IGROV1 ovarian,> 100 µM
same,GI50,HOP-92 NSCLC,> 100 µM
same,TGI,HOP-92 NSCLC,> 100 µM
same,GI50,U251 CNS,> 100 µM
same,TGI,U251 CNS,> 100 µM
same,GI50,HL-60(TB) leukemia,> 100 µM
same,TGI,HL-60(TB) leukemia,> 100 µM
same,GI50,SK-MEL-28 melanoma,> 100 µM
same,TGI,SK-MEL-28 melanoma,> 100 µM
same,GI50,EKVX NSCLC,> 100 µM
same,TGI,EKVX NSCLC,> 100 µM
same,GI50,TK-10 renal,> 100 µM
same,TGI,TK-10 renal,> 100 µM
same,GI50,A498 renal,> 100 µM
same,TGI,A498 renal,> 100 µM
same,GI50,NCI-H322M lung,> 100 µM
same,TGI,NCI-H322M lung,> 100 µM
same,GI50,NCI-H23 lung,> 100 µM
same,TGI,NCI-H23 lung,> 100 µM
same,GI50,A549 NSCLC,> 100 µM
same,TGI,A549 NSCLC,> 100 µM
same,GI50,SF-268 CNS,> 100 µM
same,TGI,SF-268 CNS,> 100 µM
same,GI50,COLO 205 colon,> 100 µM
same,TGI,COLO 205 colon,> 100 µM
same,GI50,ACHN renal,> 100 µM
same,TGI,ACHN renal,> 100 µM
same,GI50,HT29 colon,> 100 µM
same,TGI,HT29 colon,> 100 µM
same,GI50,RXF 393 renal,> 100 µM
same,TGI,RXF 393 renal,> 100 µM
same,GI50,SK-MEL-2 melanoma,> 100 µM
same,TGI,SK-MEL-2 melanoma,> 100 µM
same,GI50,SN12C renal,> 100 µM
same,TGI,SN12C renal,> 100 µM
same,GI50,MALME-3M melanoma,> 100 µM
same,TGI,MALME-3M melanoma,> 100 µM
same,GI50,MCF7 breast,> 100 µM
same,TGI,MCF7 breast,> 100 µM
same,GI50,T-47D breast,> 100 µM
same,TGI,T-47D breast,> 100 µM
same,GI50,OVCAR-4 ovarian,> 100 µM
same,TGI,OVCAR-4 ovarian,> 100 µM
